Target: rat testicular FSH receptor (FSH-R) expressed from the cloned cDNA (expression vector pCFSH-R) in transiently transfected human embryonic kidney 293 cells (rat) (UniProt P20395)

Question: “oFSH, highly purified (NIDDK-oFSH-17; 20 U/mg) (from UniProt P01218) (ligand)” was tested. Which cAMP (pmoles/10^6 cells) at 25 nM hormone (pmoles/10^6 cells) did it give?
Answer: Its cAMP (pmoles/10^6 cells) at 25 nM hormone (pmoles/10^6 cells) is 700.
